Results: patent publication US11753408B2, “Compounds and method for blocking transmission of malarial parasite” (The United States of America, as represented by the …, priority 2016, dated 2023)

Legend:
[1] = tested on: Stage III-V gametocytes (blood stage P. falciparum parasites); assay: In vitro drug activity on gametocytes (AlamarBlue viability assay); assay type: cell-based, Plasmodium falciparum; details: read-out: Gametocyte EC50, 72 h incubation
Procedure: (§1) Cell culture. Asexual parasites of P. falciparum strain 3D7 were cultured as described previously [Trager W, et al., Journal of Parasitology 2005, 91: 484-486], Stage III-V gametocytes were selected and enriched with 3-day treatment with 50 mM N-acetylglucosamine (NAG) and the following Percoll density gradient centrifugation after gametocyte production [Tanaka T Q, et al., Molecular and Biochemical Parasitology, 2011, 111: 160-163], Gametocytes of HB3 and Dd2 strains were produced and then set up for assay in a similar process. HepG2 cells (ATCC, cat. no. 77400) were cultured in 175-cm^2 tissue culture flasks with 30 ml growth medium at 37° C. in a 5% CO2 humidified atmosphere. Growth medium was made with Dulbecco's Modified Eagle Medium with 10% fetal bovine serum (FBS). Growth medium was replaced every other day and cells were passed at 75% confluence.
Compound screening experiments were performed as previously described [Tanaka T Q et al., Molecular and Biochemical Parasitology, 2013, 3188: 20-25], Briefly, 2.5 μl/well incomplete medium was dispensed into each well of 1,536-well plates using the Multidrop Combi followed by 23 nl compound transferring using the NX-TR Pintool (WAKO Scientific Solutions, San Diego, Calif.). 2.5 μl/well of gametocytes was dispensed with a seeding density of 20,000 cells/well using the Multidrop Combi. The assay plates were incubated for 72 h at 37° C. with 5% CO2. After addition of 5 μl/well of 2× AlamarBlue dye (Life Technologies, cat. no. DALI 100), the plates were incubated for 24 h at 37° C. with 5% CO2 and were read in a fluorescence detection mode (Ex=525 nm, Em=598 nm) on a ViewLux plate reader (PerkinElmer).
Stage III-V gametocytes (blood stage P. falciparum parasites) were enriched with treatment with 50 mM N-acetylglucosamine (NAG) and Percoll density gradient centrifugation as described previously^1. Briefly, 2.5 μl/well incomplete medium was dispensed into each well of 1,536-well plates using the Multidrop Combi followed by 23 nl compound transfer using the NX-TR Pintool (WAKO Scientific Solutions, San Diego, Calif.). Then, 2.5 μl/well of gametocytes was dispensed with a seeding density of 20,000 cells/well using the Multidrop Combi. The assay plates were incubated for 72 h at 37° C. with 5% CO2. After addition of 5 μl/well of 2× AlamarBlue dye (Life Technologies, cat. no. DALI 100), the plates were incubated for 24 h at 37° C. with 5% CO2 and then were read in a fluorescence detection mode (Ex=525 nm, Em=598 nm) on a ViewLux plate reader (PerkinElmer).

[2] = Solubility at pH 7.4; assay type: physicochemical
[3] = Microsomal stability (rat); assay type: in vitro ADME; details: rat microsomes
[4] = tested on: Asexual parasites of P. falciparum strain 3D7; assay: In vitro drug activity on asexual parasites (SYBR Green assay); assay type: cell-based, Plasmodium falciparum; details: for EC50: read-out: Asexual EC50, P. falciparum 3D7 asexual parasites, 72 h
Procedure: as §1
Asexual parasites of P. falciparum strain 3D7 were cultured as described previously (Trager, W. et al., J. Parasitol. 2005, 91(3): 484-486). Drug activity on asexual stage parasites was tested using a SYBR Green assay as described previously (Eastman, R. T. et al., Antimicrob. Agents Chemother. 2013, 57(1): 425-435; Smilkstein, M. et al., Antimicrob. Agents Chemother. 2004, 48(5): 1803-1806). Briefly, parasites were diluted to 0.5% parasitemia in complete culture medium with 2% hematocrit and drugs diluted in DMSO (≤0.5%) and were loaded into a 96-well plate (200 μl/well). No drug and RBC alone wells were included as positive and background controls, respectively, and each testing condition was examined in duplicated. After 72 h incubation under the standard culture condition and a freeze-thaw lysis step at −80° C. and room temperature, 100 μl/well of lysis buffer containing SYBR Green I was added to the parasite culture and incubated for 30 min at room temperature. The fluorescence of each well was measured at 520 nm following excitation at 490 nm using a FLUOstar Optima™ microplate reader (BMG Labtech).

Row | SMILES | EC50 [1] [µM] | Sol @ pH 7.4 (ug/mL) [2] [ug/mL] | Microsomal Stability (rat) T1/2 [3] [min] | EC50 [4] [nM] | Asexual EC50 (nM) ([4]; P. falciparum 3D7 asexual parasites, 72 h)
1 | CN(C)Cc1ccc(-c2ccc3ncc4[nH]c(=O)n(-c5ccc6c(c5)CN(C)C6=O)c4c3c2)cc1 | 16.9 | 54.4 | 2.2 | 5660 | –
2 | CN(C(=O)c1ccc(-n2c(=O)n(C)c3cnc4ccc(-c5ccc(N)nc5)cc4c32)cc1)C1CC1 | 0.12 | 1.9 | >30.0 | 50.7 | –
3 | Cc1cc(C(=O)N2CCOCC2)ccc1-n1c(=O)[nH]c2cnc3ccc(-c4ccc(N)nc4)cc3c21 | 2.23 | 1.6 | >30.0 | 226 | –
4 | Nc1ccc(-c2ccc3ncc4[nH]c(=O)n(-c5ccc(C(=O)NC6CC6)cc5)c4c3c2)cn1 | 29 | 4.5 | >30.0 | 352 | –
5 | Nc1ccc(-c2ccc3ncc4[nH]c(=O)n(-c5ccc(C(=O)N6CCOCC6)cc5)c4c3c2)cn1 | 3.35 | <1.0 | >30.0 | 302 | –
6 | CN(C)C(=O)c1ccc(-n2c(=O)[nH]c3cnc4ccc(-c5ccc(Cl)cc5)cc4c32)cc1 | 5.31 | <1.0 | 18.5 | 1420 | –
7 | CN(C)C(=O)c1ccc(-n2c(=O)n(C)c3cnc4ccc(-c5ccc(N)nc5)cc4c32)cc1 | 0.106 | 7 | >30.0 | 34.8 | –
8 | CN(C)C(=O)c1ccc(-n2c(=O)[nH]c3cnc4ccc(-c5ccc(N)nc5)cc4c32)cc1 | 5.63 | 4.9 | >30.0 | 114 | –
9 | O=C(c1ccc(-n2c(=O)[nH]c3cnc4ccc(-c5ccc(Cl)cc5)cc4c32)cc1)N1CCCCC1 | 37.5 | <1.0 | 12.2 | – | Inactive
10 | CCN1Cc2cc(-n3c(=O)[nH]c4cnc5ccc(-c6ccc(CN(C)C)cc6)cc5c43)ccc2C1=O | 11.3 | 58.6 | >30.0 | 3530 | –
11 | Cc1cc(C(=O)N2CCOCC2)ccc1-n1c(=O)n(C)c2cnc3ccc(-c4ccc(Cl)cc4)cc3c21 | 1.08 | 2 | 5.3 | 218 | –
